These are literature values, as cited in patent publication US20240228572A1 (i2o Therapeutics, Inc., priority 2020, published 2024).

For this series the following is noted: in humans; cited from earlier work.

`CC[C@H](C)[C@H](NC(=O)[C@@H]1CCCN1C(=O)CNC(=O)[C@H](Cc1ccccc1)NC(=O)[C@H](CC(N)=O)NC(=O)[C@H](CC(N)=O)NC(=O)[C@H](CO)NC(=O)[C@H](CO)NC(=O)[C@H](Cc1c[nH]cn1)NC(=O)[C@@H](NC(=O)[C@H](CC(C)C)NC(=O)[C@H](Cc1ccccc1)NC(=O)[C@H](CC(N)=O)NC(=O)[C@H](C)NC(=O)[C@H](CC(C)C)NC(=O)[C@H](CCCNC(=N)N)NC(=O)[C@H](CCC(N)=O)NC(=O)[C@@H](NC(=O)[C@H](C)NC(=O)[C@@H]1CSSC[C@H](NC(=O)[C@@H](N)CCCCN)C(=O)N[C@@H](CC(N)=O)C(=O)N[C@@H]([C@@H](C)O)C(=O)N[C@@H](C)C(=O)N[C@@H]([C@@H](C)O)C(=O)N1)[C@@H](C)O)C(C)C)C(=O)N[C@@H](CC(C)C)C(=O)N1CCC[C@H]1C(=O)N1CCC[C@H]1C(=O)N[C@H](C(=O)N[C@@H](CC(N)=O)C(=O)N[C@H](C(=O)NCC(=O)N[C@@H](CO)C(=O)N[C@@H](CC(N)=O)C(=O)N[C@H](C(=O)N[C@@H](Cc1ccc(O)cc1)C(N)=O)[C@@H](C)O)C(C)C)[C@@H](C)O` [pramlintide]: the half-life result was “approximately 48 minutes”.
